Source: patent US20260001891A1 (KEYMED BIOSCIENCES CHENGDU, published 2026)

Biological target: EGFR (human (endogenous on human cancer cell …, UniProt P00533 25-1210))
Experiment: cell-based or functional assay

IC50 of in vitro proliferation inhibition, EGFR-positive MDA-MB-468 cells (CCK8, 6 days)	Binder
0.19 nM	ADC-125 (antibody, human IgG1, V domains shown, linker-drug LD-104 (maleimide) coupled to cysteine sulfhydryls after TCEP reduction; average drug loading y=5.66 per antibody; positions not given) VH: QVQLQQSGAEVKKPGSSVKVSCKASGYTFTNYYIYWVRQAPGQGLEWIGGINPTSGGSNFNEKFKTRVTITVDESTNTAYMELSSLRSEDTAFYFCARQGLWFDSDGRGFDFWGQGSTVTVSS VL: DIQMTQSPSSLSASVGDRVTITCRSSQNIVHSNGNTYLDWYQQTPGKAPKLLIYKVSNRFSGVPSRFSGSGSGTDFTFTISSLQPEDIATYYCFQYSHVPWTFGQGTKLQITR
0.14 nM	ADC-127 (antibody, human IgG1, V domains shown, linker-drug LD-98 coupled to cysteine sulfhydryls after TCEP reduction; average drug loading y=6.31 per antibody; positions not given) VH: QVQLQQSGAEVKKPGSSVKVSCKASGYTFTNYYIYWVRQAPGQGLEWIGGINPTSGGSNFNEKFKTRVTITVDESTNTAYMELSSLRSEDTAFYFCARQGLWFDSDGRGFDFWGQGSTVTVSS VL: DIQMTQSPSSLSASVGDRVTITCRSSQNIVHSNGNTYLDWYQQTPGKAPKLLIYKVSNRFSGVPSRFSGSGSGTDFTFTISSLQPEDIATYYCFQYSHVPWTFGQGTKLQITR
0.23 nM	ADC-131 (antibody, human IgG1, V domains shown, linker-drug LD-114 coupled to cysteine sulfhydryls after TCEP reduction; average drug loading y=7.30 per antibody; positions not given) VH: QVQLQQSGAEVKKPGSSVKVSCKASGYTFTNYYIYWVRQAPGQGLEWIGGINPTSGGSNFNEKFKTRVTITVDESTNTAYMELSSLRSEDTAFYFCARQGLWFDSDGRGFDFWGQGSTVTVSS VL: DIQMTQSPSSLSASVGDRVTITCRSSQNIVHSNGNTYLDWYQQTPGKAPKLLIYKVSNRFSGVPSRFSGSGSGTDFTFTISSLQPEDIATYYCFQYSHVPWTFGQGTKLQITR
0.19 nM	ADC-130 (antibody, human IgG1, V domains shown, linker-drug LD-113 coupled to cysteine sulfhydryls after TCEP reduction; average drug loading y=7.18 per antibody; positions not given) VH: QVQLQQSGAEVKKPGSSVKVSCKASGYTFTNYYIYWVRQAPGQGLEWIGGINPTSGGSNFNEKFKTRVTITVDESTNTAYMELSSLRSEDTAFYFCARQGLWFDSDGRGFDFWGQGSTVTVSS VL: DIQMTQSPSSLSASVGDRVTITCRSSQNIVHSNGNTYLDWYQQTPGKAPKLLIYKVSNRFSGVPSRFSGSGSGTDFTFTISSLQPEDIATYYCFQYSHVPWTFGQGTKLQITR
